## Ab-14 light chain CDR variants: yeast mating affinities

Antigen: PDVDLGDISGINAS, a 14-residue peptide of the SARS-CoV-2 spike HR2 region.

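The parent was found by panning a naive human phage display library on the peptide. The variants were designed computationally from a first round of random CDR variants and then made and measured. Several design methods are mixed in this list. The assay is AlphaSeq: two haploid yeast populations carry antibody and antigen on their surface. After mating in shaken culture at 30 °C for 16 h, diploids were selected and their barcode pairs sequenced. Scores were corrected for input abundance and mapped to Kd with protein pairs of known affinity run in the same pool. There are six technical replicates.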

The variants keep the heavy chain, the linker and the frameworks of Ab-14 (scFv order VH, a 15-residue (Gly4Ser)3 linker, VL).
VH: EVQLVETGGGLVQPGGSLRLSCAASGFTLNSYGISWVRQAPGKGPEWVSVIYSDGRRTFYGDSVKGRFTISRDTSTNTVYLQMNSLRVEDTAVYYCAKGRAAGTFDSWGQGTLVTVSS
VL: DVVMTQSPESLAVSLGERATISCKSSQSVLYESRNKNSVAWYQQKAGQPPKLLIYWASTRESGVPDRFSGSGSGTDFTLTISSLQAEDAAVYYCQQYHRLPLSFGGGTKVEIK

Positions count from residue 1 of the parent VL; S25L puts L in place of S. This list holds designs with at most six substitutions. Each Kd is an estimate from the mating assay, the geometric mean of the replicates in which the pair was seen; lower is stronger. "nd" means that the variant was in the library but no mating with the target was seen in any replicate; the authors take this as a sign of poor binding, and no number exists. Order: sorted from the lowest average up, undetected variants last. The authors' rule: three or more of the six replicates give a measured affinity, fewer mean a poor binder. As a blank, each scFv also met three strains without target: over all light chain designs, 4% of these pairings were detected, typically at 430 nM and seldom below 38 nM. The range of this assay differs from that of the first round, and the authors advise against merging the two.

For S25L+S26P+W56S+T59Q, the assay gave 280 pM (6 of 6 replicates).
For S25F+V29H+W56D, the assay gave 290 pM (6 of 6 replicates).
For S25V+V29F+S38A+W56G+P101D, the assay gave 520 pM (6 of 6 replicates).
For S25L+L30D+W56D, the assay gave 570 pM (6 of 6 replicates).
For S25L+V29W+W56N+T59Q+E61M, the assay gave 570 pM (6 of 6 replicates).
For S25L+S26P+S28G+W56E+T59V, the assay gave 600 pM (6 of 6 replicates).
For V29W+W56G+A57S, the assay gave 630 pM (6 of 6 replicates).
For S25L+Q27G+V29Y+W56N, the assay gave 650 pM (6 of 6 replicates).
For S25F+K36Y+W56N, the assay gave 750 pM (6 of 6 replicates).
For S25Y+S26Q+Q27P+V29Y+W56Q, the assay gave 770 pM (6 of 6 replicates).
For S25V+S26Q+V29F+W56D, the assay gave 900 pM (6 of 6 replicates).
For S25W+R34V+W56D, the assay gave 1.1 nM (6 of 6 replicates).
For S26P+S28G+K36W+W56G, the assay gave 1.1 nM (6 of 6 replicates).
For S25F+V29E+S33D+W56N+T59Q, the assay gave 1.2 nM (6 of 6 replicates).
For S25L+S26E+V29H+W56N+E61M, the assay gave 1.2 nM (6 of 6 replicates).
For V29I+R34V+W56H+S62D, the assay gave 1.3 nM (6 of 6 replicates).
For S25L+V29Y+R34T+K36S+W56D, the assay gave 1.5 nM (6 of 6 replicates).
For S25L+W56D+T59Q+Q96D, the assay gave 1.5 nM (6 of 6 replicates).
For S25F+W56D+S62D, the assay gave 2.7 nM (6 of 6 replicates).
For S25L+K36H, the assay gave 3.8 nM (6 of 6 replicates).
For S25V+S33Q+W56N, the assay gave 4.6 nM (6 of 6 replicates).
For S26P+Q27T+V29L+E61D, the assay gave 5.3 nM (6 of 6 replicates).
For K24E+K36T+W56G+S103Q, the assay gave 5.4 nM (6 of 6 replicates).
For Y31G+R34G+W56E+R99H, the assay gave 6.2 nM (6 of 6 replicates).
For W56S+Q96C+Y97R, the assay gave 12 nM (4 of 6 replicates).
For V29D+R34P+K36T+W56N+P101Y, the assay gave 18 nM (4 of 6 replicates).
For W56E+L100W, the assay gave 27 nM (6 of 6 replicates).
For S25F+W56K+Y97C, the assay gave 94 nM (1 of 6 replicates).
For L30F+A57G+Q96L, the assay gave 1.7 µM (2 of 6 replicates).
For S25L+S26R+Q27M+V29T+W56R, the assay gave nd (0 of 6 replicates).
For S25F+S28K+S33E+N35T+W56N, the assay gave nd (0 of 6 replicates).
For K24S+W56H+Q95D, the assay gave nd (0 of 6 replicates).
For R34C, the assay gave nd (0 of 6 replicates).
For Q27P+N37S+S103R, the assay gave nd (0 of 6 replicates).
For E32T+S38N+R99A, the assay gave nd (0 of 6 replicates).
For Q27P+V29Q+A57V+T59M, the assay gave nd (0 of 6 replicates).
For S25Q+K36C+W56D+R60N+P101L, the assay gave nd (0 of 6 replicates).

Repeated from above, the 3 best binders with a signal in all replicates:

| changes | Kd | detected |
|---|---|---|
| S25L+S26P+W56S+T59Q | 280 pM | 6/6 |
| S25F+V29H+W56D | 290 pM | 6/6 |
| S25V+V29F+S38A+W56G+P101D | 520 pM | 6/6 |

Values reported by Li et al. 2023, doi:10.1038/s41467-023-39022-2 (FLAb copy).